1 compound from US20260382583A1, “LPA1 ANTAGONISTS FOR TREATING INTERSTITIAL LUNG DISEASE” (published 2026) can be followed below.

SMILES strings stand for the structures.

For data set [1], the system named is healthy participants. Kind of data set: Example 2 Phase 1 SAD/MAD study overall: safety and tolerability. The method, then: The study was performed in 3 parts in 112 healthy male and female participants, including 24 Japanese participants. Female participants were to be not of childbearing potential. The present study was designed to evaluate the safety and tolerability, PK, and exploratory PD of an oral suspension of Compound A. Parts A and B (Cohort B1 only) enrolled healthy participants and was conducted at a site in The Netherlands and Part B (Cohort B2 to B5) enrolled healthy non-Japanese participants and was conducted at a site in the United Kingdom (UK). Part C enrolled healthy Japanese participants and was conducted at the same site in the UK.
Part A was an SAD study in a planned number of 6 sequential dose escalation cohorts (3, 10, 30, 100, 150, or 250 mg) of 8 healthy participants (6 active+2 placebo) each, under fasted conditions. Eligible participants in Part A (excluding those in Cohort A7 [food effect (FE)/pH cohort]) received a single administration of study drug (Compound A or placebo) under fasted conditions. […]
Physical examinations, vital sign measurements (including orthostasis testing in Cohort A6, Cohort B3 to B5, and C1 to C3 at selected time points), 12-lead electrocardiogram (ECG), and clinical laboratory evaluations were performed at selected times throughout the study. […] Participants were closely monitored for adverse events (AEs). […]

The subject of data set [2] is participants with IPF. Kind of data set: Phase 2 IPF cohort: safety and blood pressure monitoring. The method, then: A total of 278 participants with IPF were randomized and 276 participants were treated as of […] analyses data cut-off (4 Aug. 2022). Male and female participants ≥40 years of age with IPF and percent predicted forced vital capacity (ppFVC) >40% and percent predicted DLCO (ppDLCO) >25%; diagnosed within 7 years of screening; having a centrally-read chest HRCT obtained at screening that was consistent with UIP or probable UIP, or having a lung biopsy consistent with UIP were eligible to enter the study. The mean baseline ppFVC for all subjects was 76.5%. In the primary IPF cohort, participants were randomized (1:1:1) to receive 30 mg or 60 mg Compound A or placebo (PBO) twice daily for 26 weeks. Participants were stratified by standard of care (SoC) IPF therapy (pirfenidone versus nintedanib versus none) and region (Japan versus Rest of World) at randomization.
Blood Pressure Monitoring: Based on the pre-specified low BP safety monitoring and criteria specified in the protocol, those on 60 mg had the lowest frequencies of orthostatic intolerance, orthostatic hypotension, or pre-specified symptomatic or asymptomatic low BP criteria. In the overall population, the following orthostatic intolerance, orthostatic hypotension, or the symptomatic or asymptomatic low BP events were observed: • Orthostatic intolerance observed in 19 (6.9%) participants. • PBO: 7 (7.6%); 30 mg: 10 (11.0%); 60 mg: 2 (2.2%) • Orthostatic hypotension observed in asymptomatic low BP in 54 (19.6%) participants. Note that orthostatic hypotension is defined as a drop in SBP of ≥20 mmHg or DBP of ≥10 mmHg with an assumption of an upright posture from either supine or seated to upright position. • PBO: 19 (20.7%); 30 mg: 21 (23.1%); 60 mg: 14 (15.1%) • Orthostatic hypotension observed in symptomatic low BP in 21 (7.5%) participants. • PBO: 7 (7.6%); 30 mg: 9 (9.9%), 60 mg: 5 (5.4%) • Asymptomatic low blood pressure observed in 59 (21.4%) of participants. • PBO: 20 (21.7%); 30 mg: 22 (24.2%); 60 mg: 17 (18.3%) • Symptomatic low blood pressure observed in 27 (9.8%) participants. • PBO: 10 (10.9%); 30 mg: 11 (12.1%); 60 mg: 6 (6.5%) • Dose reductions to Compound A 10 mg BID vs. matching PBO were implemented due to protocol-defined low BP criteria (shown below) in 18 (6.5%) participants and approximately evenly distributed across arms. • PBO: 5 (5.4%); 30 mg: 7 (7.7%); 60 mg: 6 (6.5%)
Patient experiences any of the following, confirmed by retest within 15 minutes: • Seated systolic blood pressure <85 mmHg • Seated diastolic blood pressure <55 mmHg • Orthostatic hypotension […]

As for `CCCN(C)C(=O)OCc1c(-c2ccc(O[C@H]3CCC[C@H](C(=O)O)C3)c(C)n2)nnn1C`, in data set [1], the Heart rate change entry is given as “not associated with meaningful changes in heart rate” and the “Symptoms of BP reductions” value was “mostly asymptomatic”. Also, the “Clinical consequence of Day 1 postdose SBP reductions” value in data set [2] (30 mg and 60 mg, Day 1) is “not associated with any clinical sequelae and were self-limited in nature”. Also, in data set [2] (60 mg BID), the “Asymptomatic low blood pressure” value is 17 (18.3) n (%) and the “Risk of orthostatic intolerance, orthostatic hypotension, orthostatic tachycardia, or symptomatic or asymptomatic low BP vs PBO” value is given as “not associated with any increased risk”. Moreover, the “Frequencies of orthostatic intolerance, orthostatic hypotension, or low BP criteria” value in data set [2] (60 mg BID, compared with PBO and 30 mg) is reported as “lowest frequencies”.
